BindingDB's records for 1319495

By UniProt entry, the sequences of proteins in these tests, tags left out.
UniProt P41143, whole entry, looked up: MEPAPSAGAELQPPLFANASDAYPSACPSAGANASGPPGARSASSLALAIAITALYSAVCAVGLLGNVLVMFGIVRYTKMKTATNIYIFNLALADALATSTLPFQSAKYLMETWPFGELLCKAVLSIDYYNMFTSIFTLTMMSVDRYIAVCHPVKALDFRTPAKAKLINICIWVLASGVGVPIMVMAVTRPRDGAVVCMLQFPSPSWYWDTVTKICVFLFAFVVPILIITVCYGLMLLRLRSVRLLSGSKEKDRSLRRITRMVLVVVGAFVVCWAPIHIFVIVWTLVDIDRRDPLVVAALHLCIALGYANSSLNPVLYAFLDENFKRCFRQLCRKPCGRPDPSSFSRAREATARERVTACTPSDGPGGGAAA

Biological target: Delta-type opioid receptor (Homo sapiens, UniProt P41143)
Experiment: ChEBML_146435
Excerpt: Binding affinity against opioid receptor delta from guinea pig brain membranes using [3H]DADLE as radioligand

Row | Structure (SMILES) | Ki
1 | CN(C(=O)Cc1ccc(Cl)c(Cl)c1)[C@H]1CC[C@@]2(CCCO2)C[C@@H]1N1CCCC1 | 9.4 µM
2 | CN(C(=O)Cc1ccc(Cl)c(Cl)c1)[C@H]1CCC2(C[C@@H]1N1CCCC1)OCCO2 | 1.64 µM
3 | CN(C(=O)Cc1ccc(Cl)c(Cl)c1)[C@H]1CC2(CC[C@@H]1N1CCCC1)OCCO2 | 17.5 µM
4 | CN(C(=O)Cc1ccc(Cl)c(Cl)c1)[C@H]1CC(=O)CC[C@@H]1N1CCCC1 | > 100 µM
5 | C=C1C[C@]2(CC[C@H](N3CCCC3)[C@@H](N(C)C(=O)Cc3ccc(Cl)c(Cl)c3)C2)OC1=O | 9.51 µM
6 | CN(C(=O)Cc1ccc(Cl)c(Cl)c1)[C@@H]1CCCC[C@H]1N1CCCC1 | > 10 µM
7 | C=C1C[C@@]2(CC[C@H](N3CCCC3)[C@@H](N(C)C(=O)Cc3ccc(Cl)c(Cl)c3)C2)OC1=O | 12.3 µM
